The entries are a selection whose mix differs from that of the whole data set. The source made the active and inactive calls. No stated cut-off is given here; in the data, active means inhibition above about 19%; inactive means the rest.
Target: Focal adhesion kinase 1 (Homo sapiens) (UniProt Q05397)
Test: FAK kinase inhibitors, primary screen, biochemical (AID 727);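 further: 0% = DMSO and 100% = reference compound high control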
Settings: biochemical FAK kinase activity assay; hits give high values;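 tested at 7 µM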

Chains of the proteins cited; added tags and fusions are not shown.
UniProt Q05397, whole entry, looked up: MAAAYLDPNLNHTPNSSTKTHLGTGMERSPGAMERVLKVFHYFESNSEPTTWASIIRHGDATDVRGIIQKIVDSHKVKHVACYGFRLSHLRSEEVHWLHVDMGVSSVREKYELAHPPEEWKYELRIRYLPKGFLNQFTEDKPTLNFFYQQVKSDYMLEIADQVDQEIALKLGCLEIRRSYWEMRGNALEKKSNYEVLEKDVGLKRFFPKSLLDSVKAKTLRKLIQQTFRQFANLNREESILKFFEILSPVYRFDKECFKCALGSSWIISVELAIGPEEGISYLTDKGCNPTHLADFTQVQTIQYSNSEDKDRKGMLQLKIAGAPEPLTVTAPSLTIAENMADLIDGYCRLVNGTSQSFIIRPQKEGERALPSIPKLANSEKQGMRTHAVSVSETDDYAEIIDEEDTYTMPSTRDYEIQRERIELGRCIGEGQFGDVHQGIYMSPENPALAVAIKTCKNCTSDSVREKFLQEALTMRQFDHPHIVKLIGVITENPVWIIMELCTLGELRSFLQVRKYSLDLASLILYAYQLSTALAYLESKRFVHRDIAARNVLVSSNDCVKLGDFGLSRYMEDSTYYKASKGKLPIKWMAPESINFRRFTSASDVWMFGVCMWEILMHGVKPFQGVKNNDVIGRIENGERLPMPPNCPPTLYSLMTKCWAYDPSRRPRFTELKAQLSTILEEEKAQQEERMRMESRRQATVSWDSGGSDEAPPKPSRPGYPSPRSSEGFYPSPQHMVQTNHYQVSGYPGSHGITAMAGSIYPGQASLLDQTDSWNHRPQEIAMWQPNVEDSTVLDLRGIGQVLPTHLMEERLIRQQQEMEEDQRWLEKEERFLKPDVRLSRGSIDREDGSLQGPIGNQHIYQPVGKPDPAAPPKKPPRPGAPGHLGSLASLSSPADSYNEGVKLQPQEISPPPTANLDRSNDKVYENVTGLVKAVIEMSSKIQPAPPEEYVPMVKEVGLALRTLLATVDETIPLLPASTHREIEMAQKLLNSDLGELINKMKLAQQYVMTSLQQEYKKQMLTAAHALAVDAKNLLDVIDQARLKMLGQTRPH

SMILES | inhibition
CCC(C)N(CC(C)C)C(=S)SC(NC(C)=O)C(Cl)(Cl)Cl (stereo not drawn) | inactive: 0.91%
COP1(=S)c2c(C)nn(CCC#N)c2N=C(c2ccc(F)cc2)N1C (stereo not drawn) | inactive: -3.74%
O=C(COc1ccccc1)OC1CN2CCC1CC2 (stereo not drawn) | inactive: 0.63%
O=C(OC1CN2CCC1CC2)C12CC3CC(CC(C3)C1)C2 (stereo not drawn) | inactive: -0.01%
ClCCSc1nnc(-c2cccnc2)o1 | inactive: 1.32%
CCN(CC)C(=S)SC(NC=O)C(Cl)(Cl)Cl (stereo not drawn) | inactive: -4.23%
CCOP1(=S)c2c(C)nn(CCC#N)c2N=C(c2ccc(F)cc2)N1C (stereo not drawn) | inactive: 4.21%
O=[N+]([O-])c1ccc2c(c1)nnn2O | inactive: -1.14%
CCOP1(=S)c2c(C)nn(CCC#N)c2N=C(c2ccccc2F)N1C (stereo not drawn) | inactive: -0.07%
Cc1cccc(OCC(=O)OC2CN3CCC2CC3)c1 (stereo not drawn) | inactive: 0.11%
CC1(CBr)Cn2c(nc3ccccc3c2=O)S1 (stereo not drawn) | inactive: -0.33%
O=P1(Nc2ccccn2)COc2ccccc2OC1 | inactive: 0.69%
Clc1n[nH]nc1-c1nn[nH][15n]1 | inactive: -0.96%
O=P1(Nc2ncccn2)COc2ccccc2OC1 | inactive: -4.72%
O=P1(Nc2ccc(Br)cn2)COc2ccccc2OC1 | inactive: 0.54%
Cc1ccc(OCC(=O)OC2CN3CCC2CC3)cc1 (stereo not drawn) | inactive: -4.45%
Cc1nn(-c2ccccc2)c2c1P(=O)(N1CCOCC1)N(C)C(c1ccccc1)=N2 (stereo not drawn) | inactive: -1.36%

SMILES | inhibition
O=C(OC1CN2CCC1CC2)c1cccc(Cl)c1 (stereo not drawn) | inactive: 1.34%
O=P(Nc1nccs1)(c1ccccc1)c1ccccc1 | inactive: -4.79%
c1nnnn1CCn1cnnn1 | inactive: -3.48%
O=P1(Nc2nc3ccc(Cl)cc3s2)COc2ccccc2O1 (stereo not drawn) | inactive: 2.61%
CCC(=O)N1C2C3N(C(=O)CC)C1C1N(C(=O)CC)C(C(N1C(=O)CC)N3C(=O)CC)N2C(=O)CC | inactive: 1.13%
COC(=O)c1cc2c(s1)N=C(c1ccccc1)N(C)P2(=O)N1CCOCC1 (stereo not drawn) | inactive: -6.98%
CCOC(=O)NC(Sc1ccccc1)C(Cl)(Cl)Cl (stereo not drawn) | inactive: 1.82%
CCOP(=O)(Nc1ccccc1)OCC | inactive: -0.03%
Oc1ccccc1CNc1ccccn1 | inactive: 0.6%
Cc1c2non([O-])c-2c(C)[n+](=O)[n+]1[O-] | inactive: -5.23%
CC(C)CC(=O)NC(Sc1ccc(Cl)cc1)C(Cl)(Cl)Cl (stereo not drawn) | inactive: -0.45%
CN1CCCC(OC(=O)C(c2ccccc2)c2ccccc2)C1 (stereo not drawn) | inactive: 1.38%
CC1CCN(C(=O)Oc2c(Cl)cc(Cl)c3cccnc23)CC1 | inactive: -3.71%
CCc1nc2c(n1)c1c(non1O)c1c2no[n+]1[O-] | inactive: -1.34%
CC(=O)N1C2C3N(C(C)=O)C1C1N(C(C)=O)C(C(N1C(C)=O)N3C(C)=O)N2C(C)=O | inactive: -1.21%
O=[N+]([O-])c1cccc2n[nH]nc12 | inactive: 1.56%
